Molecular target: Cytochrome P450 2C9 (Homo sapiens, UniProt P11712)
Assay: Binding affinity towards cytochrome P450 2C9
Type: ADME

Sequences of proteins named here, by UniProt entry; tags and fusion partners are left off.
UniProt P11712, whole entry: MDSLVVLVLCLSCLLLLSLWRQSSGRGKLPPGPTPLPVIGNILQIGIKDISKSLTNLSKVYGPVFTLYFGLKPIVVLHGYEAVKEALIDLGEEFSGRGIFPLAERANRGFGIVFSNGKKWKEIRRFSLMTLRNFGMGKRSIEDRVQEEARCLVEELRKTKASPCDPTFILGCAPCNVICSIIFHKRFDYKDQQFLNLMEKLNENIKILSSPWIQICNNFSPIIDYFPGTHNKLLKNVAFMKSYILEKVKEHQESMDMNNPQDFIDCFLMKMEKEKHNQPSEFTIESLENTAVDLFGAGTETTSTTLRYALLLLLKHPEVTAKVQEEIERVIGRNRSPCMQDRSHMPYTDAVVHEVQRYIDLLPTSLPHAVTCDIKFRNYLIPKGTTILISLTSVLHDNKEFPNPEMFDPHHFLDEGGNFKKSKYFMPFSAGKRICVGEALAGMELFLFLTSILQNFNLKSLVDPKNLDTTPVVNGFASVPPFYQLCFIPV

SMILES | Ki
CCc1nc(N)nc(N)c1-c1ccc(Cl)cc1 [PYRIMETHAMINE] | 51.5 µM
O=c1c(O)c(-c2ccc(O)c(O)c2)oc2cc(O)cc(O)c12 [QUERCETIN] | 27 µM

Source: ChEMBL document CHEMBL1148414, “Conformer- and alignment-independent model for predicting structurally diverse competitive CYP2C9 inhibitors” (J Med Chem, 2004)
